Assay results from patent US8138187B2, “Substituted heteroaryl derivatives” (Gruenenthal GmbH, priority 2006, dated 2012).

By UniProt entry, the sequences of proteins in these tests, tags left out. Where a name states a change or a piece, a line headed by the entry shows the natural chain unless it says otherwise.
UniProt P35372, whole entry, looked up: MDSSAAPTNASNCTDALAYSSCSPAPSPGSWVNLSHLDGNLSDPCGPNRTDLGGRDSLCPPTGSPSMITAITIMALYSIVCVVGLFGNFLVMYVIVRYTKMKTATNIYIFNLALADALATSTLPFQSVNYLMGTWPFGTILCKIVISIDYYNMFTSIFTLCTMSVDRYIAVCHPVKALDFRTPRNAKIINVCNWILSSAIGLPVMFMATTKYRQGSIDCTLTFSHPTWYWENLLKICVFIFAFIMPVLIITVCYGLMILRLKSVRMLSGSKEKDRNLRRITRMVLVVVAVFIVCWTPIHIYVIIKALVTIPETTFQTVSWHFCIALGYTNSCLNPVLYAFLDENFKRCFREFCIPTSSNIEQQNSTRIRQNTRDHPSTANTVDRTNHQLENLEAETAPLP
UniProt P41146: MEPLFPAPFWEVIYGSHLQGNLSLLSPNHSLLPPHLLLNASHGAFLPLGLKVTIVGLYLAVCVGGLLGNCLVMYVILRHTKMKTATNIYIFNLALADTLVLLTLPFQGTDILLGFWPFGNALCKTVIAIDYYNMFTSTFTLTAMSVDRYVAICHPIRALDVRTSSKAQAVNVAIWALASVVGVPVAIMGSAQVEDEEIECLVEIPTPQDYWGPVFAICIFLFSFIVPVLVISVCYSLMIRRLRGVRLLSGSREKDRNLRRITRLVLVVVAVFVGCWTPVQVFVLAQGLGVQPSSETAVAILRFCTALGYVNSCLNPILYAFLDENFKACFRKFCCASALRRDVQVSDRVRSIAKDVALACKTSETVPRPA

Key:
[1] = molecular target: human μ opiate receptor (Homo sapiens, UniProt P35372); assay: μ binding, displacement of [3H]-naloxone; conditions: CHO-K1 membranes expressing human μ opiate receptor; for Ki: read-out: Ki [μM] (μ), Cheng-Prusoff; for % inhibition (μ) at 1 μM: 1 μM test compound
[2] = molecular target: ORL1 receptor (Homo sapiens, UniProt P41146); assay: ORL1 receptor binding assay with 3H-nociceptin/orphanin FQ; conditions: membranes from recombinant CHO-ORL1 cells; for % inhibition (ORL1) at 1 μM: 1 μM test compound; for Ki: read-out: Ki [μM] (ORL1)

Row | Compound | % inhibition (ORL1) at 1 μM [2] | % inhibition (μ) at 1 μM [1] | further results
1 | CC(=O)OCCc1c(C2=CCC(c3ccccc3)(N(C)C)CC2)[nH]c2ccccc12 (centres unmarked) | 58% | – | Ki [1]: 0.11 µM
2 | CCCCC1(N(C)C)CCC(c2[nH]c3ccc(C(F)(F)F)cc3c2C)CC1 (centres unmarked) | – | 21% | –
3 | CCCCC1(N(C)C)CCC(c2[nH]c3ccc(F)cc3c2C)CC1 (centres unmarked) | 92% | 102% | –
4 | CCCCC1(N(C)C)CCC(c2[nH]c3ccccc3c2C2CC2)CC1 (centres unmarked) | 18% | 27% | –
5 | CCCCC1(N(C)C)CCC(c2[nH]c3ccccc3c2CCNC(=O)CC(C)(C)C)CC1 (centres unmarked) | 78% | 96% | –
6 | CCCCC1(N(C)C)CCC(c2c[nH]c3ncccc23)CC1 (centres unmarked) | 74% | 64% | –
7 | CCCCC1(N2CCCC2)CCC(c2[nH]c3ccccc3c2C)CC1 (centres unmarked) | – | 15% | –
8 | CCCc1c(C2CCC(Cc3ccccc3)(N(C)C)CC2)[nH]c2ccccc12 (centres unmarked) | 11% | 41% | –
9 | CN(C)C1(Cc2ccccc2)CCC(c2[nH]c3ccccc3c2CCCC(=O)O)CC1 (centres unmarked) | 36% | 88% | –
10 | CN(C)C1(Cc2ccccc2)CCC(c2[nH]c3ccccc3c2CCCO)CC1 (centres unmarked) | 86% | 98% | –
11 | CN(C)C1(Cc2ccccc2)CCC(c2c[nH]c3ncccc23)CC1 (centres unmarked) | 22% | 36% | –
12 | CN(C)C1(c2ccccc2)CC=C(c2c(CCO)sc3ccccc23)CC1 (centres unmarked) | 65% | – | Ki [1]: 0.21 µM
13 | CN(C)C1(c2ccccc2)CC=C(c2oc3ccccc3c2CCS)CC1 (centres unmarked) | 56% | – | Ki [1]: 0.032 µM
14 | CN(C)C1(c2ccccc2)CCC(c2[nH]c3ccc(F)cc3c2CCn2cnc3ccccc32)CC1 (centres unmarked) | 102% | 97% | –
15 | CN(C)C1(c2ccccc2)CCC(c2[nH]c3ccccc3c2C2CC2)CC1 (centres unmarked) | 32% | 28% | –
16 | CN(C)C1(c2ccccc2)CCC(c2[nH]c3ccccc3c2CCC(=O)O)CC1 (centres unmarked) | 84% | 99% | –
17 | CN(C)C1(c2ccccc2)CCC(c2[nH]c3ccccc3c2CCCC(=O)O)CC1 (centres unmarked) | 83% | 99% | –
18 | CN(C)C1(c2ccccc2)CCC(c2[nH]c3ccccc3c2CCN2C(=O)c3ccccc3C2=O)CC1 (centres unmarked) | 70% | 89% | –
19 | CN(C)C1(c2ccccc2)CCC(c2[nH]c3ccccc3c2CCN2CCCCC2)CC1 (centres unmarked) | 99% | 95% | –
20 | CN(C)C1(c2ccccc2)CCC(c2[nH]c3ncccc3c2CCCO)CC1 (centres unmarked) | 67% | 88% | –
21 | CN(C)C1(c2ccccc2)CCC(c2c[nH]c3ccccc23)CC1 (centres unmarked) | 50% | 67% | –
22 | CN(C)C1(c2ccccc2)CCC(c2c[nH]c3ncccc23)CC1 (centres unmarked) | 39% | 62% | –
23 | CN(C)C1(c2ccccn2)CC=C(c2c(CCO)sc3ccccc23)CC1 (centres unmarked) | – | 31% | –

Row | Compound | % inhibition (ORL1) at 1 μM [2] | % inhibition (μ) at 1 μM [1] | further results
24 | CNCC(O)Cn1c(C2CCC(c3ccccc3)(N(C)C)CC2)c(C)c2ccccc21 (centres unmarked) | 57% | 57% | –
25 | Cc1c(C2=CCC(c3ccccc3)(N(C)C)CC2)oc2ccccc12 (centres unmarked) | – | 20% | –
26 | Cc1c(C2=CCC(c3ccccc3)(N(C)C)CC2)sc2ccccc12 (centres unmarked) | – | 42% | –
27 | Cc1c(C2CCC(c3ccccc3)(N(C)C)CC2)[nH]c2ccc(C#N)cc12 (centres unmarked) | 38% | 54% | –
28 | Cc1c(C2CCC(c3ccccc3)(N(C)C)CC2)[nH]c2ccc(C(F)(F)F)cc12 (centres unmarked) | 18% | 24% | –
29 | Cc1c(C2CCC(c3ccccc3)(N(C)C)CC2)n(CC2CO2)c2ccccc12 (centres unmarked) | 14% | 42% | –
30 | Cc1c(C2CCC(c3ccccc3)(N(C)C)CC2)sc2ccccc12 (centres unmarked) | – | 14% | –
31 | 1-(2-(2-(4-(Dimethylamino)-4-phenylcyclohexyl)-1H-indol-3-yl)ethyl)pyrrolidine-2.5-dione [Example 187] | – | – | % inhibition (μ) at 1 μM ([1]; 1 µM): 100%; % inhibition (ORL1) at 1 μM ([2]; 1 µM): 100%
32 | 1-(2-(2-(4-(Dimethylamino)-4-phenylcyclohexyl)-1H-indol-3-yl)ethyl)pyrrolidine-2.5-dione [Example 188] | – | – | % inhibition (μ) at 1 μM ([1]; 1 µM): 68%; % inhibition (ORL1) at 1 μM ([2]; 1 µM): 41%
33 | 2-(2-(4-(Dimethylamino)-4-phenylcyclohexyl)-1H-indol-3-yl)ethyl acetate | 23% | 62% | –
34 | 3-(2-(4-(Dimethylamino)-4-phenylcyclohexyl)-1H-indol-3-yl)propyl acetate [Example 185] | – | – | % inhibition (μ) at 1 μM ([1]; 1 µM): 65%; % inhibition (ORL1) at 1 μM ([2]; 1 µM): 69%
35 | 3-(2-(4-(Dimethylamino)-4-phenylcyclohexyl)-1H-indol-3-yl)propyl acetate [Example 186] | – | – | % inhibition (μ) at 1 μM ([1]; 1 µM): 101%; % inhibition (ORL1) at 1 μM ([2]; 1 µM): 98%
36 | 4-(1.3-Dimethyl-1H-indol-2-yl)-N,N-dimethyl-1-phenylcyclohexanamine | 67% | 91% | –
37 | 4-(2-(4-(Dimethylamino)-4-phenylcyclohexyl)-1H-indol-3-yl)butanol | 99% | 100% | –
38 | CCCCC1(N(C)C)CC=C(c2[nH]c3ccc(F)cc3c2C)CC1 (racemic) | 58% | 93% | –
39 | CCCCC1(N(C)C)CC=C(c2[nH]c3ccccc3c2CC2CCCCC2)CC1 (racemic) | 11% | – | –
40 | CCCCC1(N(C)C)CC=C(c2c[nH]c3ncccc23)CC1 (racemic) | 12% | 49% | –
41 | CCCCC1(N2CCCC2)CC=C(c2[nH]c3ccccc3c2C)CC1 (racemic) | – | 20% | –
42 | CCCCC1(N2CCCC2)CC=C(c2[nH]c3ccccc3c2CCc2ccncc2)CC1 (racemic) | – | 35% | –
43 | CN(C)C1(Cc2ccccc2)CC=C(c2[nH]c3ccccc3c2C2CC2)CC1 (racemic) | – | 30% | –
44 | CN(C)C1(Cc2ccccc2)CC=C(c2[nH]c3ccccc3c2CC2CCCCC2)CC1 (racemic) | – | 20% | –
45 | CN(C)C1(Cc2ccccc2)CC=C(c2[nH]c3ccccc3c2Cc2ccccc2)CC1 (racemic) | – | 13% | –
46 | CN(C)C1(Cc2ccccc2)CC=C(c2c[nH]c3ncccc23)CC1 (racemic) | 32% | 80% | –

Row | Compound | % inhibition (ORL1) at 1 μM [2] | % inhibition (μ) at 1 μM [1] | further results
47 | CN(C)C1(c2cc3ccccc3s2)CC=C(c2[nH]c3ccc(F)cc3c2CCO)CC1 (racemic) | – | 64% | –
48 | CN(C)C1(c2cccc(F)c2)CC=C(c2[nH]c3ccccc3c2CCc2ccncc2)CC1 (racemic) | – | 67% | –
49 | CN(C)C1(c2ccccc2)CC=C(c2[nH]c3cc(Cl)c(Cl)cc3c2CCO)CC1 (racemic) | – | 40% | Ki [2]: 2 µM
50 | CN(C)C1(c2ccccc2)CC=C(c2[nH]c3ccc([N+](=O)[O-])cc3c2CCO)CC1 (racemic) | 10% | 23% | –
51 | CN(C)C1(c2ccccc2)CC=C(c2c[nH]c3ncccc23)CC1 (racemic) | 37% | 72% | –
52 | CN(C)C1(c2ccccc2)CC=C(c2cn(S(=O)(=O)c3ccccc3)c3ccccc23)CC1 (racemic) | 32% | 18% | –
53 | CN(C)C1(c2cccs2)CC=C(c2[nH]c3ccccc3c2CCc2ccncc2)CC1 (racemic) | – | 92% | –
54 | CN1CCN(C2(Cc3ccccc3)CC=C(c3[nH]c4ccc(F)cc4c3CCO)CC2)CC1 (racemic) | – | 21% | –
55 | CNC1(c2ccccc2)CC=C(c2[nH]c3ccccc3c2CCc2ccncc2)CC1 (racemic) | – | 85% | –
56 | Cc1c(C2=CCC(Cc3ccccc3)(N(C)C)CC2)[nH]c2ccc(C#N)cc12 (racemic) | – | 62% | –
57 | Cc1c(C2=CCC(Cc3ccccc3)(N(C)C)CC2)[nH]c2ccc(F)cc12 (racemic) | – | 61% | –
58 | Cc1c(C2=CCC(c3cccc(F)c3)(N(C)C)CC2)[nH]c2ccccc12 (racemic) | 40% | 38% | –
59 | Cc1c(C2=CCC(c3ccccc3)(N(C)C)CC2)[nH]c2ccc(C#N)cc12 (racemic) | 87% | 96% | –
60 | Cc1c(C2=CCC(c3ccccc3)(N(C)C)CC2)[nH]c2ccc(C(F)(F)F)cc12 (racemic) | 27% | 53% | –
61 | Cc1c(C2=CCC(c3ccccc3)(N(C)C)CC2)[nH]c2ccc(F)cc12 (racemic) | 12% | 39% | –
62 | Cc1c(C2=CCC(c3ccccc3)(N(C)C)CC2)[nH]c2ccccc12 (racemic) | 16% | 51% | –
63 | Cc1c(C2=CCC(c3ccccc3)(N(C)C)CC2)n(CC(O)CN(C)C)c2ccccc12 (racemic) | 23% | 43% | –
64 | Cc1c(C2=CCC(c3ccccc3)(N(C)C)CC2)n(CC2CO2)c2ccccc12 (racemic) | 29% | 64% | –
65 | Cc1c(C2=CCC(c3cccs3)(N(C)C)CC2)[nH]c2ccccc12 (racemic) | – | 64% | –
66 | Cc1c(C2CCC(c3ccccc3)(N(C)C)CC2)n(CC2CO2)c2ccccc12 (racemic) | 95% | 97% | –
67 | CN(C)C1(Cc2ccccc2)CC=C(c2cc3ccccc3n2C)CC1 (centres unmarked) [Example 302, [1-Benzyl-4-(1-methyl-1H-indol-2-yl)cyclohex-3-enyl]dimethylamine] | – | – | Ki [2]: 0.13 µM
